Biological target: CDK9/cyclin T complex (Homo sapiens, UniProt P50750)
Test: CDK9/cyclin T kinase assay (as for CDK7)
Format: biochemical
[1] = CDK9 kinase inhibition in vitro (IC50) in nM, Table 7, mean of three experiments

Protein sequences, listed by entry. Tags and fused reporters are not part of them.
UniProt P50750, whole entry: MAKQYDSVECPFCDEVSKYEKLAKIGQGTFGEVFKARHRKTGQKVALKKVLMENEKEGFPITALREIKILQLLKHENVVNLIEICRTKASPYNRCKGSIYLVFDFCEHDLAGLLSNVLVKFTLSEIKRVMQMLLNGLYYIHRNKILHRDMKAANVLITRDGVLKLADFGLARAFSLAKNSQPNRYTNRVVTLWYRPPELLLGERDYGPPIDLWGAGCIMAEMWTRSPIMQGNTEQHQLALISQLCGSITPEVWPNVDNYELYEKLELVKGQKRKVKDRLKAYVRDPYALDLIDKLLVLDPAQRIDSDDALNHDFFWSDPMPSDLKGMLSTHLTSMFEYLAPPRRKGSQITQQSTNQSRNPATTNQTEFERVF

| Compound | IC50 [1] [nM] | IC50 (CDK9 IC50 (nM), Table 2) [nM] |
| --- | --- | --- |
| CC(C)c1cnn2c(NCc3ccccc3)cc(N[C@@H](CO)[C@H](O)CO)nc12 [ICEC0318, (3S)-3-(7-(Benzylamino)-3-isopropylpyrazolo[1,5-a]pyrimidin-5-ylamino)butane-1,2,4-triol] | 50 |  |
| CC(C)c1cnn2c(NCc3ccccc3)cc(N[C@@H](CO)[C@@H](O)CO)nc12 [ICEC0319, (3S)-3-(7-(Benzylamino)-3-isopropylpyrazolo[1,5-a]pyrimidin-5-ylamino)butane-1,2,4-triol] | 75 |  |
| CC(C)c1cnn2c(NCc3ccccc3)cc(N[C@@H](CO)[C@@H](O)CO)nc12 [Example 9] |  | 10 to 100 |
| CC(C)c1cnn2c(NCc3ccccc3)cc(N[C@@H](CO)[C@H](O)CO)nc12 [Example 8] |  | 10 to 100 |
